Results from ChEMBL document CHEMBL4823256, “Prodrugs of a 1'-CN-4-Aza-7,9-dideazaadenosine C-Nucleoside Leading to the Discovery of Remdesivir (GS-5734) as a Potent Inhibitor of Respiratory Syncytial Virus with Efficacy in the African Green Monkey Model of RSV” (J Med Chem, 2021).

Experiment: in vivo
Details: cynomolgus monkey, iv, 20 mg/kg

In the case of `N#C[C@@]1(c2ccc3c(N)ncnn23)O[C@H](CO)[C@@H](O)[C@H]1O` [GS-441524], the Vd at 0.5 h is reported as 1.03 L/kg.
